Among the data in PubChem BioAssay AID588856 (National Center for Advancing Translational Sciences (NCATS), 2011) are activity change, negative = cytotoxicity values, retold here.

This is a selection; strong and weak results do not stand in their true shares. Active and inactive are the calls of the source. Calls follow the shape of the dose curve; as a rule, active = well fitted cell-killing curve with a large enough effect; inactive = no such curve, though single readings can be large or run the other way.

The nature of this experiment: qHTS for Inhibitors of TGF-b: Cytotox Counterscreen. Conditions: HepG2 CAGA-GFP viability, ATP luminescence, 18 h; at 46.1 µM (top of the series). The source says: TGF-b is a main component in the TGF-b signaling pathway which plays diverse roles in cellular and development pathways. TGF-b is mediated by transcription factors called "Smads". Although the Smad-dependent pathway is the primary canonical TGF-b signaling mode, TGF-b1 can also activate alternative signaling pathways, including those involving MAPK (ERK, JNK and p38). This interaction may mediate or enhance Smad-dependent responses, or can exert Smad-independent effects. The complexity of this signaling cascade allows the TGF-b superfamily to perform unique, overlapping or redundant functions. We believe that targeting the TGF-beta pathway at the Smad-transcription factor level may eliminate the consequences of disrupting the entire pathway and offer specificity without affecting other signaling pathways. Smad3 is the primary transducer of TGF-b's signals and Smad3 regulates many functions attributed to TGF-b signaling. We hypothesize that Smad3 inhibitors will selectively eliminate Smad3-specific TGF-beta signals without undesired off-target effects. We aim to identify Smad3-small molecule antagonists using a quantitative high throughput screening (qHTS) approach.
A high-throughput assay was developed to screen the NIH Molecular Libraries Small Molecule Repository (MLSMR). This is a cell based assay, where TGF-b is tagged with GFP. This is a counterscreen that evaluates the cytotoxicity of the compounds that were screened in the primary cell-based screen (AID 588855).
MH087449NIH Chemical Genomics Center [NCGC]
NIH Molecular Libraries Probe Centers Network [MLPCN]
Assay Submitter (PI): Sushil Rane, National Institute of […]
Suspensions of trypsinized HEPG2 CAGA-GFP cells were dispensed into white, tissue culture-treated, solid 1536-well plates at 5uL/well (1000 cells/well final concentration) in DMEM medium supplemented with 1% FBS. Plates were incubated at 37 degrees C for 2 hours, after which 23 nL of compounds or DMSO were delivered to each well using a pin tool. One uL of recombinant TGF-beta in DMEM (1% FBS) was then dispensed (500 pg/mL final concentration), and plates were incubated at 37 degrees C for 18 hours. Two uL of CellTiter Glo (Promega), a luminescence-based viability reagent, was dispensed, followed by a 10 minute room temperature incubation. The plates were then measured on a PerkinElmer ViewLux plate reader for luminescence (clear filter) using a 5 second exposure. The %Activity was determined from the corrected luminescence values. Wells containing media only (no cells) were used to normalize %Activity of identified toxic compounds; media-only wells corresponded to 100%Activity (complete cell-killing), while DMSO-dosed cell controls were used to normalize 0%Activity (no toxicity).
Concentration-response curves were fitted to the signals arising from the resulting luminescence. The concentration-effect curves were then classified based on curve quality (r2), response magnitude and degree of measured activity, and compounds were subsequently categorized based on their curve class.
(Quantitative high-throughput screening tests each substance at several concentrations.)
`O=C(NCC1(N2CCOCC2)CCCCC1)c1ccccc1[N+](=O)[O-]`: the activity change, negative = cytotoxicity was inactive: -6.8%.

As for `N#Cc1ccc(C(=O)NCC2(N3CCCCC3)CCCCC2)cc1`, the activity change, negative = cytotoxicity is inactive: -3.49%.

As to `O=C(NCC1(N2CCOCC2)CCCCC1)c1ccc([N+](=O)[O-])cc1`, the activity change, negative = cytotoxicity is inactive: -16.9%.

In the case of `CC(C)(C)OC(=O)N1CCC(N(C(=O)c2ccccc2)c2ccc(Cl)cc2)CC1`, the activity change, negative = cytotoxicity was inactive: 4.03%.

In the case of `CCOC(=O)C(CC)C1=NC(C)(C)Cc2ccccc21.O=[N+]([O-])c1cc([N+](=O)[O-])c(O)c([N+](=O)[O-])c1` (stereo not given), the activity change, negative = cytotoxicity is inactive: 11.7%.

With `CN(C)C1(CNC(=O)c2cccc(C#N)c2)CCCCC1`, the activity change, negative = cytotoxicity was inactive: 7.2%.

Turning to `c1ccc(CN2CCC(Nc3ccccc3)CC2)cc1`, the activity change, negative = cytotoxicity is inactive: -22.4%.

As to `Cc1cc(N(CCCl)CCCl)ccc1C=O`, the activity change, negative = cytotoxicity was inactive: -44.1%.

Turning to `O=C(NCC1(N2CCOCC2)CCCCC1)c1ccccc1`, the activity change, negative = cytotoxicity was inactive: -6.45%.

On to `O=c1[nH]c2ccccc2n1C1CCN(C(c2ccccc2)c2nnnn2C2CCCC2)CC1` (stereo not given), for which the activity change, negative = cytotoxicity is inactive: -31.8%.

With `CCCN1CCC(Nc2cc(OC)cc(OC)c2)CC1`, the activity change, negative = cytotoxicity was inactive: -7.76%.

Turning to `CC(C)(C)n1nnnc1C(c1cccc2ccccc12)N1CCC(n2c(=O)[nH]c3ccccc32)CC1` (stereo not given), the activity change, negative = cytotoxicity was inactive: 10.7%.

As to `CCCCn1nnnc1C(c1ccccc1)N1CCC(n2c(=O)[nH]c3ccccc32)CC1` (stereo not given), the activity change, negative = cytotoxicity was inactive: -15%.

For `COc1cc(C(=O)NCC2(N3CCOCC3)CCCCC2)cc(OC)c1C`, the activity change, negative = cytotoxicity is inactive: -12%.

On to `O=C(NCC1(N2CCOCC2)CCCCC1)c1cc(Br)ccc1Cl`, for which the activity change, negative = cytotoxicity is inactive: -0.422%.

Consider `O=c1[nH]c2ccccc2n1C1CCN(C(c2cccs2)c2nnnn2C2CCCCC2)CC1` (stereo not given), for which the activity change, negative = cytotoxicity was inactive: -16.8%.

With `O=Cc1ccc(N(CCCl)CCCl)cc1`, the activity change, negative = cytotoxicity was inactive: -10.3%.

For the compound `COc1ccc(C(=O)NCC2(N3CCOCC3)CCCCC2)cc1OC`, the activity change, negative = cytotoxicity is inactive: -8.09%.

In the case of `O=c1[nH]c2ccccc2n1C1CCN(C(c2ccnc3ccccc23)c2nnnn2C2CCCC2)CC1` (stereo not given), the activity change, negative = cytotoxicity is inactive: 5.05%.

With `COc1cccc(C(c2nnnn2C(C)(C)C)N2CCC(n3c(=O)[nH]c4ccccc43)CC2)c1OC` (stereo not given), the activity change, negative = cytotoxicity is inactive: 3.32%.

On to `CCOC(=O)N1CCC(Nc2ccc(C)cc2)CC1`, for which the activity change, negative = cytotoxicity is inactive: 7.87%.

`N/C(=N\O)c1c(N)no[n+]1[O-]`: the activity change, negative = cytotoxicity was inactive: -2.24%.

Turning to `O=C(OC1CN2CCC1CC2)C1c2ccccc2C=Cc2ccccc21` (stereo not given), the activity change, negative = cytotoxicity is inactive: -10.9%.

With `CCc1cc(C(=O)NCC2(N3CCCCC3)CCCCC2)sc1C`, the activity change, negative = cytotoxicity was inactive: -16.8%.

Regarding `O=C(O)c1cccc(Nc2c([N+](=O)[O-])cc([N+](=O)[O-])cc2[N+](=O)[O-])c1`, the activity change, negative = cytotoxicity was inactive: -2.07%.
